{"source": "paper PMC9127186", "about": "“Molecular Basis Underlying Hepatobiliary and Renal Excretion of Phenolic Acids of Salvia miltiorrhiza Roots (Danshen)” (Frontiers in Pharmacology, 2022)", "key": {"human OAT3": {"biological_target": "T1, human OAT3 (Homo sapiens, UniProt Q8TCC7)", "T1 sequence (Q8TCC7 1-542)": "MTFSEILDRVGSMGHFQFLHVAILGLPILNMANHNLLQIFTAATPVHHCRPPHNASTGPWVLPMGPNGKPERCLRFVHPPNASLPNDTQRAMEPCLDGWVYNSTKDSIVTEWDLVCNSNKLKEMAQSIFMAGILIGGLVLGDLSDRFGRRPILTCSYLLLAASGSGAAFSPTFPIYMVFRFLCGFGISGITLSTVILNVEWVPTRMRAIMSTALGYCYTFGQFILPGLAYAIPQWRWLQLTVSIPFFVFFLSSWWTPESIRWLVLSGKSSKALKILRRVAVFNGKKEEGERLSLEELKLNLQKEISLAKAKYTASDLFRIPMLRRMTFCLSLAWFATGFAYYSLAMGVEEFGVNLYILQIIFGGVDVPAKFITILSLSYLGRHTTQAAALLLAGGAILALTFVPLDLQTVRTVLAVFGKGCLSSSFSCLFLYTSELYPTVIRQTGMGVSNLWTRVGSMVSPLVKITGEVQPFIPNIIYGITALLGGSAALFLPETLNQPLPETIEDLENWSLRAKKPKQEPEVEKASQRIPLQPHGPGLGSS", "assay": "Cellular transport assay, HEK-293 cells expressing human OAT3", "procedure": "(§1) Briefly, HEK-293 cells were grown, at 37°C and 5% CO2, in Dulbecco’s modified Eagle’s medium, which was fortified with 10% fetal bovine serum, 1% minimal essential medium nonessential amino acids, and 1% antibiotic-antimycotic solution. A day before transfection, cells were seeded onto 24-well poly-D-lysine-coated plates at a density of 2 × 10^5 cells per well. After incubation at 37°C and 5% CO2 for 24 h, the expression plasmid and the empty vector were introduced separately into the HEK293 cells with Lipofectamine 2000 transfection reagent (Invitrogen, Carlsbad, CA, United States), according to the manufacturer’s protocol to yield transporter-expressing cells and mock cells, respectively.\n(§2) Transport studies were performed 48 h after the transfection. […] Differential uptake between the transfected cells and mock cells was defined as net transport ratio (TransportTC/TransportMC ratio), where TransportTC and TransportMC are the transport rates of a test Danshen compound into transfected and mock cells, respectively. […] The determination was performed under linear uptake conditions by incubation for 5 min. Table 1 summarizes the final concentrations of the test Danshen compounds for different transporters. All the incubation samples were analyzed by liquid chromatography/mass spectrometry. […]"}, "human OAT4": {"biological_target": "T2, human OAT4 (Homo sapiens, UniProt Q9NSA0)", "T2 sequence (Q9NSA0 1-550)": "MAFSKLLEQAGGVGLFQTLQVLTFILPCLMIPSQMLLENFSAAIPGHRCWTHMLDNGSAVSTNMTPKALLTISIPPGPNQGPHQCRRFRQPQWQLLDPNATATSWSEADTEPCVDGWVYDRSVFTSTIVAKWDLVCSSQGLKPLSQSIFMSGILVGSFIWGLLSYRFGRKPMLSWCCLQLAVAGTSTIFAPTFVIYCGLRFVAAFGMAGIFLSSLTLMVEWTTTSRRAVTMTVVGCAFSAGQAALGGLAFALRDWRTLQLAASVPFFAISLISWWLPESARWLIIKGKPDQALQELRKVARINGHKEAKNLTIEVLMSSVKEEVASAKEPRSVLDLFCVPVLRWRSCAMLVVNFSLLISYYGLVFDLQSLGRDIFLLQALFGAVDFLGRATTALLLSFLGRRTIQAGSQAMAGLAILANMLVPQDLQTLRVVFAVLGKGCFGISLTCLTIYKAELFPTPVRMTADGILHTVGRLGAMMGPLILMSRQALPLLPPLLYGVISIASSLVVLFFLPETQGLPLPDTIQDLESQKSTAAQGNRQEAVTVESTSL", "assay": "Cellular transport assay, HEK-293 cells expressing human OAT4", "procedure": "as §1, §2"}}, "data": [{"smiles": "O=C(O)C(O)Cc1ccc(O)c(O)c1", "note": "(stereo not drawn) [Tanshinol, tanshinol]", "values": [{"measurement": "substrate of human OAT3", "setting": "human OAT3", "value": "relatively weak substrates"}, {"measurement": "substrate of human OAT4", "setting": "human OAT4", "value": "relatively weak substrates"}, {"measurement": "microsomal CLint", "setting": "human OAT4; human, other cell line", "value": 0.35, "unit": "µL/min/mg"}]}]}
